Biological target: GST-tagged truncated human mutant G2019S LRRK2 (Homo sapiens (Human), UniProt Q5S007, G2019S)
Assay: LRRK2 G2019S Km ATP LanthaScreen assay
Conditions: G2019S LRRK2, 134 μM ATP (Km ATP), LRRKtide substrate
Description: Unless otherwise noted, all reactions are magnetically allowed to stir, diethyl ether used in the experiments described below is Fisher ACS certified material stabilized with BHT, and “concentrated” and/or “solvent removed under reduced pressure” means evaporating the solvent from a solution or mixture using a rotary evaporator or vacuum pump. Unless otherwise noted, flash chromatography is carried out on a Teledyne Isco (Lincoln, NE), Analogix (Burlington, WI), or Biotage (Stockholm, SWE) automated chromatography system using a commercially available cartridge as the column. […]
The LRRK2 kinase activity reported herein as IC50 values was determined with LanthaScreen™ technology from Life Technologies Corporation (Carlsbad, CA) using GST-tagged truncated human mutant G2019S LRRK2 in the presence of the fluorescein-labeled peptide substrate LRRKtide, also from Life Technologies. […] Upon completion, the assay was stopped and phosphorylated substrate detected with a terbium (Tb)-labeled anti-pERM antibody (cat. no. PV4898). […] After an incubation of 1 h at room temperature, the plate was read on an EnVision multimode plate reader (Perkin Elmer, Waltham, MA) with an excitation wavelength of 337 nm (Laser) and a reading emission at both 520 and 495 nm. […]

Sequences of proteins named here, by UniProt entry; tags and fusion partners are left off. Residues count along the entry.
UniProt Q5S007, 970-2527 G2019S limits assumed: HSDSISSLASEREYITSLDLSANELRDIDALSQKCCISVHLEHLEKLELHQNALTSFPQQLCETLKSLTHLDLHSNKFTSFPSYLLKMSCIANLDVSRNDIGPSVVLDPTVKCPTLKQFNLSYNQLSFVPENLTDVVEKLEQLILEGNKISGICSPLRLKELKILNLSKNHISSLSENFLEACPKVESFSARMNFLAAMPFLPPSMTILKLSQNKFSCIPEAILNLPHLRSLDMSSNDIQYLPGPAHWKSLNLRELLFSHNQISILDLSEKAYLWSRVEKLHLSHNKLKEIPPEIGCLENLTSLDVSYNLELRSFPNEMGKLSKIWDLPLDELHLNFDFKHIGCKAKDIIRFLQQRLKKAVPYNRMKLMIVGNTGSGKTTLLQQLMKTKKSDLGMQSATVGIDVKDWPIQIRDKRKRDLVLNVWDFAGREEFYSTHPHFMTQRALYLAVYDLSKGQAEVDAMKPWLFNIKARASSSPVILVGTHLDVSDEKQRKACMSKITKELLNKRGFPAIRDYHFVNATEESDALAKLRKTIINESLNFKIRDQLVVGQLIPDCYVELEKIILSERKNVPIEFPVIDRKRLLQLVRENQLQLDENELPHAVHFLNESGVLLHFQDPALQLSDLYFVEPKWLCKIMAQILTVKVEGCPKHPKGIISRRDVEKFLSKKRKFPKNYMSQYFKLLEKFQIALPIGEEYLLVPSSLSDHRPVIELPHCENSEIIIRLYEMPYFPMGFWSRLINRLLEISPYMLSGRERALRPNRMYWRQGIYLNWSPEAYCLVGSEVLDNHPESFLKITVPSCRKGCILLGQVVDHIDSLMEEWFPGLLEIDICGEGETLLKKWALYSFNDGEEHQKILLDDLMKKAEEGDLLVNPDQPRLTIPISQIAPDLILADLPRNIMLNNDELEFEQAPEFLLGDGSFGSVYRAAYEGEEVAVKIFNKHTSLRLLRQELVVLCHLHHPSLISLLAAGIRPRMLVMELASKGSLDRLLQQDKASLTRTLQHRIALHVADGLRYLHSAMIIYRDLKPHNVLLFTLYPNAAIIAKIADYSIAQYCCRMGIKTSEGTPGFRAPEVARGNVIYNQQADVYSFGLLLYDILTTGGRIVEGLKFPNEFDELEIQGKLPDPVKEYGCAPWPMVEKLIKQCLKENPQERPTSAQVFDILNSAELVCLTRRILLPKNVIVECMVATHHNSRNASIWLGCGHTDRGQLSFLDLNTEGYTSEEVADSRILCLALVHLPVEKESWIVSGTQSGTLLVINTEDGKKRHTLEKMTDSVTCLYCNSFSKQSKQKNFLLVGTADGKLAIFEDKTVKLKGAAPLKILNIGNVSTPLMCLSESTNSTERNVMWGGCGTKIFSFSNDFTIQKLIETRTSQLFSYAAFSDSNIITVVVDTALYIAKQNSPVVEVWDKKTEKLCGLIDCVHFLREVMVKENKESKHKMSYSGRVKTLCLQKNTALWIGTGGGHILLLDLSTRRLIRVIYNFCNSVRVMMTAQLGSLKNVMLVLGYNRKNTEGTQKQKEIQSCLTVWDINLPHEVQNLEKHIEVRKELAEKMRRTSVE

SMILES | LRRK2 pIC50
CC(C)(CO)c1nn(C2CCC2)c2c1OC[C@@H]1CC[C@H]1Nc1nc(ncc1C(F)(F)F)N2 (relative stereo) | 6.62
CC(C)(CO)c1nn(C2CCC2)c2c1OC[C@H]1CC[C@@H]1Nc1nc(ncc1C(F)(F)F)N2 (relative stereo) | 10.03

From patent US20250313575A1, “MACROCYCLES AS LRRK2 INHIBITORS, PHARMACEUTICAL COMPOSITIONS, AND USES THEREOF” (Merck Sharp & Dohme LLC, priority 2022, published 2025)
